The record followed here is article PMC3402552 (2012).

The subject of the assay is 5-HF1F. To be noted: 5-HTR profiling.

`CNC(=O)c1cc(Oc2ccc(NC(=O)Nc3ccc(Cl)c(C(F)(F)F)c3)cc2)ccn1` [sorafenib]: the “binding (in words)” value is “doesn’t bind”.
